# Experimental data reported in PubChem BioAssay AID1645886 (National Center for Advancing Translational Sciences (NCATS), 2021).
# Amino acid sequences for entries named in this document (tags omitted).
# UniProt Q8WZA2, whole entry: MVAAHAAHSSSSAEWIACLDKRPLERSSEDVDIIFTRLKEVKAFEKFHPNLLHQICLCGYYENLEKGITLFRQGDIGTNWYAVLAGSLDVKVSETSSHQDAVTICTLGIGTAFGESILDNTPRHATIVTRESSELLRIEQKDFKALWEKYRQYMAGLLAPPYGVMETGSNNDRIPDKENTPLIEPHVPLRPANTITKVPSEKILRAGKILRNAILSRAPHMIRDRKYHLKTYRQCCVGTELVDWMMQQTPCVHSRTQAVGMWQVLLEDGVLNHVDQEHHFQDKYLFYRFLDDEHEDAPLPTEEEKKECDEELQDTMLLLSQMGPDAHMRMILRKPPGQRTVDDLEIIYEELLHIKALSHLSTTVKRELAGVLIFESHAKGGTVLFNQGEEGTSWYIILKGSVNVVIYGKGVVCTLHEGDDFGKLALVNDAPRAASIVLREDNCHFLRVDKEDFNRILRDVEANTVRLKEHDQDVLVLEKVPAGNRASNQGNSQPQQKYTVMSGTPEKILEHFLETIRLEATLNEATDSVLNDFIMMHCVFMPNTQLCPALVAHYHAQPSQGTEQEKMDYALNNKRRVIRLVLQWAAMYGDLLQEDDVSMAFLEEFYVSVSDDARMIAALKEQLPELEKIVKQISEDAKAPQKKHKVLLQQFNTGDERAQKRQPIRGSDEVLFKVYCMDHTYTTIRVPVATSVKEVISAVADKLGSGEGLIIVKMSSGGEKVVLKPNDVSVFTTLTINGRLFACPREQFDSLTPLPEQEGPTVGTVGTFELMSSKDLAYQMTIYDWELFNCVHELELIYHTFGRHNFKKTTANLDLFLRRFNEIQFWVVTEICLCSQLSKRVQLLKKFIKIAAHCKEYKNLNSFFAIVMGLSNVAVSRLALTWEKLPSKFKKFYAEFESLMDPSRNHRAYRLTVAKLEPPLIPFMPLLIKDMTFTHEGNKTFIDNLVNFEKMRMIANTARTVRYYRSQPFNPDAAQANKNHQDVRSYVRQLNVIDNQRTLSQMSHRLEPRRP
# Values joined by “and” are separate entries in the source; they are usually repeats but may differ in a detail not shown here. Equal values may be shown once. This is a selection; strong and weak results do not stand in their true shares. Results filed as inconclusive are left out. Active and inactive are the calls of the source. Calls come from the whole dose curve; as a rule, active = well fitted inhibition curve with a large enough effect; inconclusive = small, poorly fitted or top-dose-only effect; inactive = no such curve, though single readings can be large or run the other way.
# Target: Rap guanine nucleotide exchange factor 4 (Homo sapiens) (UniProt Q8WZA2)
# Assay: Validation qHTS for antagonist of cAMP-regulated guanine nucleotide exchange factor 4 (EPAC2); note: nearly all actives have a fitted effect of over 40% in size
# Conditions: EPAC2 Rap1B BODIPY-GDP exchange, fluorescence; at 239 µM (top of the series) unless noted
# Description: Principle Investigator: Xiaodong Cheng Ph.D. The University of Texas Medical Branch, […], TX MLPCN Grant: NS066510 In multi-cellular eukaryotic organisms, the effects of cAMP are transduced by two ubiquitously-expressed intracellular cAMP receptors, the classic protein kinase A/cAMP-dependent protein kinase (PKA/cAPK) and the more recently discovered exchange protein directly activated by cAMP/cAMP-regulated guanine nucleotide exchange factor (EPAC/cAMP-GEF). Both PKA and EPAC are ubiquitously expressed in all tissues, and an increase in intracellular cAMP levels will lead to the activation of both PKA and EPAC. Therefore, careful dissections of the individual role and relative contribution of EPAC and PKA within the overall cAMP signaling in various model systems are critical for further elucidating the mechanism of cAMP signaling. To date no EPAC-specific antagonists and agonist, as well as isoform-specific agonists have been reported, and developing EPAC-specific pharmacological probes to determine the physiological functions that EPAC play in the overall cAMP-mediated signaling remains a major challenge within the research field. […] This qHTS will be used to screen the Molecular Libraries Small Molecule Repository (MLSMR) as a concentration-titration series using the NCGC unique quantitative screening (qHTS) platform to find activators for EPAC1. […] Activators are identified by monitoring the change in fluorescence signal as the exchanged free BODIPY-GDP has a reduced fluorescence compared to Rap1-bound BODIPY-GDP. […]
# Briefly, three uL of reagents (100 nM EPAC2, 250 nM RAP1B-BODIPY-GDP, 50 uM GDP) were dispensed into a 1536-well Greiner black solid-bottom medium binding assay plate. […] The assay plates were read at 5 minute intervals for 30 minutes in the ViewLux plate reader using 480nm excitation and 540nm emission filters. […]
row,Compound,"activity, negative = inhibition"
1,CCC(=O)N(c1ccccc1)C1(COC)CCN(CCc2cccs2)CC1,inactive: -16.2%
2,CCC(=O)N(c1ccccc1)C1(COC)CCN(CCn2nnn(CC)c2=O)CC1,inactive: 17%
3,CN(CCCl)CCCl,inactive: -2.3% [at 112 µM] and inactive: -1.03% [at 112 µM]
